Laboratory results published in PubChem BioAssay AID652105 (National Center for Advancing Translational Sciences (NCATS), 2013).
The entries are a selection whose mix differs from that of the whole data set. The source made the active and inactive calls. The calls were made as follows: active = max response of -50% or lower; inconclusive = between -30% and -50%; inactive = -30% or higher.

Protein sequences, listed by entry. Tags and fused reporters are not part of them.
UniProt P48426, whole entry: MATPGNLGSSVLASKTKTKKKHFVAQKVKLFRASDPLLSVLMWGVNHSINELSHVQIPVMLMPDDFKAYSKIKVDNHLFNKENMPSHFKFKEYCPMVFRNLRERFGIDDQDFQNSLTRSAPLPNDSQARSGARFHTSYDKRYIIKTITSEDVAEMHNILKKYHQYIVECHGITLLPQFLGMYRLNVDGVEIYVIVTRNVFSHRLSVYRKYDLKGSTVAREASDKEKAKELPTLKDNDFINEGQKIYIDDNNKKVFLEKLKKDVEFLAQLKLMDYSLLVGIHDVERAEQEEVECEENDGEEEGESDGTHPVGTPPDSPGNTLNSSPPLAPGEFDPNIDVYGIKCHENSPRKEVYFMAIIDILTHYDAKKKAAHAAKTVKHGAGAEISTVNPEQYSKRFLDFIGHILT

Target: Phosphatidylinositol 5-phosphate 4-kinase type-2 alpha (Homo sapiens) (UniProt P48426)
Test: qHTS for Inhibitors of phosphatidylinositol 5-phosphate 4-kinase (PI5P4K); also: value at the top dose of about 77 µM
Details: PI5P4Kalpha enzyme, ADP-Glo luminescence, 60 min; stronger effect = lower value
Excerpt: In addition to finding PI5P, we discovered the type II phosphatidylinositol 5-phosphate 4-kinase (PI5P4K) family (alpha, beta, gamma isoforms) that catalyze the conversion of PI5P to PI(4,5)P2. Alternatively, PI(4,5)P2 can also be synthesized through phosphatidylinositol-4-phosphate (PI4P) by the type I phosphatidylinositol 4-phosphate 5-kinases (PI4P5K). These PI5P4K enzymes therefore represent one way by which cells can regulate endogenous PI5P levels and play important roles in insulin signaling and in stress responses.
This proposal aims to identify and optimize specific modulators of human PI5P4K, phosphatidylinositol-5-phosphate 4-kinase (Type II PIPK), a family of kinases that regulate AKT signaling and tumor cell growth. In this project we aim to identify inhibitors of human PI5P4K using a quantitative high-throughput screening approach against the MLSMR containing ~400,000 small molecules.
NIH Chemical Genomics Center [NCGC]
NIH Molecular Libraries Probe Centers Network [MLPCN]
Assay Submitter (PI): Atsuo Sasaki, Beth Israel Deaconess Medical Center
2 microL of PI5P4Kalpha/substrate buffer (columns 1-2, 5-48) are dispensed into Greiner white solid bottom 1536-well assay plates; column 3 receives only PI5P4Kalpha buffer as 0x substrate controls; column 4 receives only substrate buffer as 0x PI5P4Kalpha controls. Final assay buffer consists of 0.038 M HEPES pH 7.4, 0.28 mM EGTA, 0.1% CHAPS, and 5% DMSO (final concentration). Compounds are then transferred via Kalypsys pin tool equipped with 1536-pin array (10 nL slotted pins, V&P Scientific, San Diego, CA). Following addition of compound, 1 microL of ATP (5 microM final concentration, all columns) is added to initiate the reaction. ATP is diluted in an assay buffer consisting of 0.02 M HEPES pH 7.4, 60 mM MgCl2, 15 microM ATP, and 0.1% CHAPS. The plates are then incubated at room temperature for 60 minutes. ADP-Glo reagent 1 is added (2 microL) and plates incubated for 45 minutes, before ADP-Glo reagent 2 (4 microL) is added and plates incubated for 30 minutes. They are then transferred to a ViewLux high-throughput CCD imager (PerkinElmer) wherein single end-point measurements of luminescence are acquired using a clear filter.
% is scaled to controls: 0 for no effect and ±100 for the full control effect.

| Compound | max response |
| --- | --- |
| COc1cc(OC)cc(C(=O)NCC2(N3CCCCC3)CCCCC2)c1 | inactive: -2.29% |
| O=c1[nH]c2ccccc2n1C1CCN(C(c2ccnc3ccccc23)c2nnnn2C2CCCCC2)CC1 (stereo not given) | inactive: -0.834% |
| CC(C)(C)n1nnnc1C(c1cccc2ccccc12)N1CCC(n2c(=O)[nH]c3ccccc32)CC1 (stereo not given) | inactive: -0.572% |
| CN(C)C1(CNC(=O)c2cccc(C#N)c2)CCCCC1 | inactive: 2.42% |
| O=c1[nH]c2ccccc2n1C1CCN(C(c2ccccc2)c2nnnn2C2CCCC2)CC1 (stereo not given) | inactive: -0.334% |
| CCCN1CCC(Nc2cc(OC)cc(OC)c2)CC1 | inactive: 2.76% |
| Cc1cc(N(CCCl)CCCl)ccc1C=O | inactive: -0.645% |
| c1ccc(CN2CCC(Nc3ccccc3)CC2)cc1 | inactive: -3.04% |
| CCOC(=O)C(CC)C1=NC(C)(C)Cc2ccccc21.O=[N+]([O-])c1cc([N+](=O)[O-])c(O)c([N+](=O)[O-])c1 (stereo not given) | inactive: -19.5% |
| N#Cc1ccc(C(=O)NCC2(N3CCCCC3)CCCCC2)cc1 | inactive: 5.1% |
| CC(C)(C)OC(=O)N1CCC(N(C(=O)c2ccccc2)c2ccc(Cl)cc2)CC1 | inactive: 9.56% |
| O=C(O)c1cccc(Nc2c([N+](=O)[O-])cc([N+](=O)[O-])cc2[N+](=O)[O-])c1 | inactive: -7.04% |
| O=c1[nH]c2ccccc2n1C1CCN(C(c2cccs2)c2nnnn2C2CCCC2)CC1 (stereo not given) | inactive: -1.51% |
| CCc1cc(C(=O)NCC2(N3CCCCC3)CCCCC2)sc1C | inactive: -4.47% |
| O=C(OC1CN2CCC1CC2)C1c2ccccc2C=Cc2ccccc21 (stereo not given) | inactive: 2.71% |
| CCCCn1nnnc1C(c1cccc(OC)c1OC)N1CCC(n2c(=O)[nH]c3ccccc32)CC1 (stereo not given) | inactive: 4.34% |
| CCOC(=O)N1CCC(Nc2ccc(C)cc2)CC1 | inactive: 0% |
| COc1cccc(C(c2nnnn2C(C)(C)C)N2CCC(n3c(=O)[nH]c4ccccc43)CC2)c1OC (stereo not given) | inactive: -3.08% |
| N/C(=N\O)c1c(N)no[n+]1[O-] | inactive: -6.33% |
| O=c1[nH]c2ccccc2n1C1CCN(C(c2cccs2)c2nnnn2C2CCCCC2)CC1 (stereo not given) | inactive: 2.5% |
| O=c1[nH]c2ccccc2n1C1CCN(C(c2ccnc3ccccc23)c2nnnn2C2CCCC2)CC1 (stereo not given) | inactive: -4.41% |
| COc1ccc(C(=O)NCC2(N3CCOCC3)CCCCC2)cc1OC | inactive: 3.65% |
| COc1cc(C(=O)NCC2(N3CCOCC3)CCCCC2)cc(OC)c1C | inactive: -2.31% |
| CCCCn1nnnc1C(c1ccccc1)N1CCC(n2c(=O)[nH]c3ccccc32)CC1 (stereo not given) | inactive: -1.4% |
| O=C(NCC1(N2CCOCC2)CCCCC1)c1cc(Br)ccc1Cl | inactive: 3.98% |
